Consider two substances from patent publication US20240238327A1, “PHARMACEUTICAL COMPOSITION COMPRISING GAMMA-CYCLODEXTRIN POLYMER AND USES THEREOF” (priority 2021, published 2024).

For series [1], the system named is whole blood from wild-type C57/BL6 mice. Put plainly: hemolytic activity. It is filed as cell-based. The settings on record: for hemolytic activity: monomers, 50 mg/ml in PBS, 37° C., 1 hour.
For series [2], the system named is Raw 264.7 cells. In words: cytotoxicity (CCK-8 cell viability). It is filed as cell-based. The settings on record: 20 mg/mL; compared to alpha- and beta-cyclodextrins, regardless of molecular weight.

For hydroxypropyl-gamma-cyclodextrin, the “hemolytic activity (in words)” value in series [1] (50 mg/ml, compared to alpha- and beta-cyclodextrins, regardless of molecular weight) was “significantly low hemolytic activities”. Besides, the hemolytic activity in series [1] is reported as 1.6%. Besides, the “cytotoxicity (in words)” value in series [2] is recorded as “significantly low cytotoxicity”.
For hydroxypropyl-alpha-cyclodextrin, the hemolytic activity in series [1] is 93.5%.
